Reference: article PMC3392958, “Assay Format as a Critical Success Factor for Identification of Novel Inhibitor Chemotypes of Tissue-Nonspecific Alkaline Phosphatase from High-Throughput Screening” (Molecules, 2010)

The chains behind the UniProt entries cited, without tags or fusion partners. Residues count along the entry.
UniProt P05187, 23-506 limits assumed: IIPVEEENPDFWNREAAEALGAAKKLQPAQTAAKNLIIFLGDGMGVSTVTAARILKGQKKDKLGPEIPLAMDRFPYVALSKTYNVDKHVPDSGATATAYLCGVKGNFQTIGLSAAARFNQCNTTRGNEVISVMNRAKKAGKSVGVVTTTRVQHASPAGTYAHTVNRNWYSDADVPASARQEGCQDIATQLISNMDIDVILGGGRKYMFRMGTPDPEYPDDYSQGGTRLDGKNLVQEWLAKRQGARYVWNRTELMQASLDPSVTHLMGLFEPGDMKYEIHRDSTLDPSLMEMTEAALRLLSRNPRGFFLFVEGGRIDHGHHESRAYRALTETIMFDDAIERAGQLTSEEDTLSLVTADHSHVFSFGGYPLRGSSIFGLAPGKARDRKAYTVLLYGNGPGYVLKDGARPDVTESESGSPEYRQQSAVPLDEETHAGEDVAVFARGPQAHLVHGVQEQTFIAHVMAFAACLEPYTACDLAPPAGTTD

Tests used:
TNAP [1] = target: T1, TNAP (Homo sapiens, UniProt P05186); experiment: TNAP colorimetric assay (pNPP substrate, OD405, 1M DEA); format: biochemical
T1 construct: made in house; host or cells: COS-1 cells, transient expression; dialyzed serum-free conditioned medium
T1 sequence (P05186 18-501 limits assumed): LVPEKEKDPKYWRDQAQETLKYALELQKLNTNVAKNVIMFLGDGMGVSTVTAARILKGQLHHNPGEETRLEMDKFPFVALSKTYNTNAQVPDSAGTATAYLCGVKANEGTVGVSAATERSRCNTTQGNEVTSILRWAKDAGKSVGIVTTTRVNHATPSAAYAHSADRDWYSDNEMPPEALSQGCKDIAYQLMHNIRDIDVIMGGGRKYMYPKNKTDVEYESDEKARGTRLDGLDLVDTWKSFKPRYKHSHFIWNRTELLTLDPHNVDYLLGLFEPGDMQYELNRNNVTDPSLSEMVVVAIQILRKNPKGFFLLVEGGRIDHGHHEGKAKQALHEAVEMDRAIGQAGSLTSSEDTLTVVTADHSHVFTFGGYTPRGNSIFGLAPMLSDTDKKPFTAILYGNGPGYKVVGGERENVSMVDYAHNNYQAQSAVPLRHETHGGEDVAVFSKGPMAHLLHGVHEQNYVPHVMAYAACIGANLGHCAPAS

TNAP [2] = target: T1, TNAP; experiment: TNAP colorimetric malachite green phosphate detection (MG) assay; format: biochemical
TNAP [3] = target: T1, TNAP; experiment: TNAP luminescent assay (CDP-star substrate, 100 mM DEA); format: biochemical
TNAP [4] = target: T1, TNAP; design: method as in PMID 19556612; details: three DEA concentrations tested; cited from earlier work
human PLAP = target: T2, human PLAP (Homo sapiens, UniProt P05187); experiment: PLAP luminescent assay (CDP-star); format: biochemical; details: catechol series
T2 construct: made in house; host or cells: COS-1 cells, transient expression; dialyzed serum-free conditioned medium
Text: Selectivity of Primary Actives Against other Phosphatases: To assess the selectivity of compounds across the alkaline phosphatase family, luminescent assays were developed for human PLAP and human IAP with the same CDP-Star reagent. As mentioned above, the PLAP selectivity assay (PubChem AID 1512) was implemented as an integral part of the hit optimization process. For lead characterization, we added a luminescent assay for IAP (PubChem AID 1017) to the selectivity panel. The selectivity data for the best representatives of the scaffolds, obtained at our screening center (CPCCG) and extracted from the PubChem database, are summarized in Table 4.
Development of the novel luminescent TNAP assay using CDP-star substrate and detailed protocol of its application for HTS is described in more detail elsewhere. […] Briefly, the assay was 50 μM CDP-star substrate in assay buffer containing 100 mM DEA-HCl (pH 9.8), 1 mM MgCl2, and 20 μM ZnCl2. The luminescence signal was measured after a 30-min incubation at room temperature on an EnVision plate reader (PerkinElmer, Waltham, MA). […] Detailed protocols can be found in the respective AIDs, however, the final buffer conditions were 100 mM DEA, pH 9.8, 1.0 mM MgCl2, 0.02 mM ZnCl2 for both PLAP and IAP.

Row | average Hill coefficient, colorimetric p-nitrophenol release assay (TNAP [1]) | average Hill coefficient, colorimetric phosphate-release assay (TNAP [2]) | average Hill coefficient, luminescent assay (TNAP [3]) | mode of TNAP inhibition versus the phosphate accepting substrate (DEA) (TNAP [3]) | mode of TNAP inhibition versus the phosphate donating substrate (CDP-star or pNPP) (TNAP [3]) | IC50 (human PLAP) | Structure (SMILES) | mechanism of TNAP inhibition with respect to DEA (TNAP [4])
1 | 1.02 | 0.99 | 1.12 | non-competitive | uncompetitive | – | COc1ccc(OC)c(S(=O)(=O)Nc2cnc3ccccc3c2)c1 [MLS-0038949] | noncompetitive
2 | – | – | – | – | – | 2.5 µM | Cc1cc(C)nc(SCC(=O)c2ccc(O)c(O)c2)n1 [MLS-0315687] | –
